This is a selection; strong and weak results do not stand in their true shares. Calls of active or inactive are those of the source.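 The calls were made as follows: active = inhibition of at least 50% at 20 µM; inactive = the rest.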
Experiment: inhibition of PEG-3 promoter activity – cell-based, HeLa, luciferase luminescence, primary screen (AID 588405)
Conditions: HeLa PEG-Prom luciferase reporter, overnight, at 20 µM, stronger effect = higher value

SMILES | inhibition
CCOP(C)(=S)SCC(=O)NC(C)(CC)C(=O)O (stereo unspecified) | inactive: 3.23%

Source: PubChem BioAssay AID588405 (Sanford-Burnham Center for Chemical Genomics, 2011)
